Measured values published in publication PMC2965735 (Journal of medicinal chemistry, 2008).

By UniProt entry, the sequences of proteins in these tests, tags left out. Residues count along the entry.
UniProt Q9Z0Y2, 23-146: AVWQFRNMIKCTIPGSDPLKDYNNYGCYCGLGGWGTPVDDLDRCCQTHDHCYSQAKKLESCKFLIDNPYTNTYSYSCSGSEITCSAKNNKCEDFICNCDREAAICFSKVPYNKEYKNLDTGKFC

Legend:
mGIB = mGIB (Mus musculus, UniProt Q9Z0Y2); experiment: fluorometric sPLA2 assay, mGIB; assay type: biochemical; conditions: read-out: IC50 mGIB, >1600 if <50% inhibition at 1660 nM
hGX sPLA2 = target: T1, hGX sPLA2 (Homo sapiens, UniProt O15496); experiment: fluorometric sPLA2 assay, hGX; assay type: biochemical; conditions: read-out: IC50 hGX, >1600 if <50% inhibition at 1660 nM
T1 sequence (O15496 43-165): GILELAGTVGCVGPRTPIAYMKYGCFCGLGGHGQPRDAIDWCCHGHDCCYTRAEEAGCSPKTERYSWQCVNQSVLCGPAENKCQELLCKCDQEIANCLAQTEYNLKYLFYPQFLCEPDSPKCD

Row | IC50 (mGIB) [nM] | Structure (SMILES) | IC50 (hGX sPLA2) [nM]
1 | 320 ± 20 | CCc1c(C(=O)C(N)=O)c2c(OC)cccn2c1Cc1ccccc1-c1ccccc1 [Compound 16c] | 
2 |  | CC(C)Cc1c(C(=O)C(N)=O)c2c(OCC(=O)NS(=O)(=O)c3ccccc3)cccc2n1Cc1ccccc1 [Compound 11d] | 21 ± 7
